Assay results reported in PMC5866846 (Archives of Toxicology, 2017).

Legend:
CYP2B6 = CYP2B6 activity in upcyte hepatocytes after treatment (probe substrate cocktail); settings: rifampicin 30 µM, 72 h, both cell strains
CYP1A2 = CYP1A2 activity in upcyte hepatocytes after treatment (probe substrate cocktail); settings: rifampicin 30 µM, 72 h, both cell strains

Structure (SMILES): CO[C@H]1/C=C/O[C@@]2(C)Oc3c(C)c(O)c4c(O)c(c(/C=N/N5CCN(C)CC5)c(O)c4c3C2=O)NC(=O)/C(C)=C\C=C\[C@H](C)[C@H](O)[C@@H](C)[C@@H](O)[C@@H](C)[C@H](OC(C)=O)[C@@H]1C [Rifa, rifampicin, reference compound]
- induction of CYP2B6 activity (CYP2B6): not induced
- induction of CYP1A2 activity (CYP1A2): not induced
